# Results: patent US9302996B2, “Continuous arycyclic compound” (MITSUBISHI TANABE PHARMA CORPORATION, priority 2010, dated 2016)
# Tested on: C57BL/6J mice
# Assay: Antifeeding activity (high fat diet intake up to 4 hours)
# Type: in vivo
# Conditions: Mus musculus, male C57BL/6J mice, 5 mg/kg oral, food ingested up to 4 hours, read-out: Antifeeding rate (5 mg/kg)
smiles,measurement,value
"CC(C)(COc1ccc(-c2ccc(-c3ncc(C(F)(F)F)[nH]3)cn2)cc1)C(=O)O [Example 1-3), 2,2-dimethyl-3-(4-{5-[5-(trifluoromethyl)-1H-imidazol-2-yl]pyridin-2-yl}phenoxy)propanoic acid]",inhibition in vivo at 5 mg/kg,77%
